Source: PMC5974032

Amino acid sequences for entries named in this document (tags omitted). Residues count along the entry.
UniProt P02745, 23-245: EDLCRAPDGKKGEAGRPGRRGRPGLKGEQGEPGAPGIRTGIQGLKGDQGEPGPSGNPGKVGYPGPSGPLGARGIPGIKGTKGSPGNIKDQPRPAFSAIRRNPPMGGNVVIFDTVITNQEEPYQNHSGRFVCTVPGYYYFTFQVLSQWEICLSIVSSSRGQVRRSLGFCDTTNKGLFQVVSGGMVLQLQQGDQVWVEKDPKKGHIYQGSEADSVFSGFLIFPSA
C1q purified from human serum, UniProt P02746, 28-253: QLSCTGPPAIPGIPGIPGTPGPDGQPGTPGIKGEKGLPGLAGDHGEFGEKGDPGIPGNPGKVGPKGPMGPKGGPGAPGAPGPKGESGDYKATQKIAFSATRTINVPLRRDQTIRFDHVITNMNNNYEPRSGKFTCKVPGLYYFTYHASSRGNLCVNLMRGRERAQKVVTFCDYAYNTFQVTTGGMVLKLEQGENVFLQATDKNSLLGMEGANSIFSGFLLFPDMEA
C1q purified from human serum, UniProt P02747, 29-245: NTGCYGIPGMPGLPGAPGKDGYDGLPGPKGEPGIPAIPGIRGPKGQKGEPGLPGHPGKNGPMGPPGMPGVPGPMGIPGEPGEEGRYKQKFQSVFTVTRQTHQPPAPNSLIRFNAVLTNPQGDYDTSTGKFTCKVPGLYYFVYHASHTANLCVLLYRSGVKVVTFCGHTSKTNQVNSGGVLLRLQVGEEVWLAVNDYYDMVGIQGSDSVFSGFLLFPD

Biological target: O10 IgG1_CH2-3 (mouse)
Assay: ELISA; plates coated with BSA conjugated with B-trisaccharide, O10 muteins captured from cell culture media (3 µg/ml), then 2 µg/ml C1q purified from human serum, detected with HRP-labeled anti-human C1q; signal normalized to bound antibody; room temperature

C1q purified from human serum (from UniProt P02745 23-245; P02746 28-253; P02747 29-245) (complex)
C1q binding relative to native IgG3 (normalized to bound antibody): 12%
